Results on 42 compounds are retold here after US11292791B2 (priority 2017, dated 2022).

Broadly, the IC50 is the midpoint of a concentration-inhibition curve.

For this assay, the target named is BRD4 (Homo sapiens (Human), UniProt O60885). As to the kind of experiment: biochemical. The note with it: BRD4 IC50 (μM gmean).

In turn, `COC(=O)N1c2ccc3c(nc(C4(Oc5cnccn5)CC4)n3[C@@H]3CCC[C@@H](C(=O)O)C3)c2CC[C@@H]1C` [Example 604] gave a 50% inhibitory concentration (IC50) of 0.1 to 1 µM.

With `COC(=O)N1c2ccc3c(nc(C(O)c4ccc(OC)c(F)c4)n3C3CCCC(C(=O)O)C3)c2CC[C@@H]1C` (stereo partly drawn) [Example 420], the half-maximal inhibitory concentration (IC50) was in the range of 0.1 to 1 µM.

Compound `COC(=O)N1c2ccc3c(nc(C(O)c4ccc5c(ccn5C)c4)n3C3CCCC(C(=O)O)C3)c2CC[C@@H]1C` (stereo partly drawn) [Example 962] displayed an IC50 of 0.01 to 0.1 µM.

Take `COC(=O)N1c2ccc3c(nc(N(C)c4cccc(OC)c4)n3[C@@H]3CCC[C@@H](C(=O)O)C3)c2CC[C@@H]1C` [Example 535]: the IC50 fell in the range of 0.1 to 1 µM.

With `COC(=O)N1c2ccc3c(nc(Cc4cc5ccccc5[nH]4)n3[C@@H]3CCC[C@@H](C(=O)O)C3)c2CC[C@@H]1C` [Example 500], the IC50 was in the range of 0.1 to 1 µM.

As to `COC(=O)N1c2ccc3c(nc(C(O)c4cc(Cl)c5c(c4)CCO5)n3C3CCCC(C(=O)O)C3)c2CC[C@@H]1C` (stereo partly drawn) [Example 426], the IC50 fell in the range of 0.1 to 1 µM.

Compound `COC(=O)N1c2ccc3c(nc(Cc4ccccc4)n3[C@H]3CC[C@H](C(N)=O)CC3)c2CC[C@@H]1C` [Example 74, methyl (7S)-2-benzyl-7-methyl-3-[trans-4-carbamoylcyclohexyl]-3H,6H,7H,8H,9H-imidazo[4,5-f]quinoline-6-carboxylate] gave a concentration for half-maximal inhibition (IC50) of 1 to 1000 µM.

`COC(=O)N1c2ccc3c(nc(Nc4cccc(C#N)c4)n3[C@H]3CC[C@H](C(=O)O)CC3)c2CC[C@@H]1C` [Example 884] registered a half-inhibitory concentration (IC50) of 0.1 to 1 µM.

As for `COC(=O)N1c2ccc3c(nc(C(O)c4cc(F)ccc4C(F)F)n3C3CCCC(C(=O)O)C3)c2CC[C@@H]1C` (stereo partly drawn) [Example 444], the half-inhibitory concentration (IC50) fell in the range of 0.1 to 1 µM.

The compound `COC(=O)N1c2ccc3c(nc(Nc4ccccc4OC)n3[C@H]3CC[C@H](C(=O)O)CC3)c2CC[C@@H]1C` [Example 854] had a half-maximal inhibitory concentration (IC50) of 0.1 to 1 µM.

In turn, `COC(=O)N1c2ccc3c(nc(C(C)OC4CCCCC4)n3C3CCCC(C(=O)O)C3)c2CC[C@@H]1C` (stereo partly drawn) [Example 486] registered a half-maximal inhibitory concentration (IC50) of 0.1 to 1 µM.

In turn, `COC(=O)N1c2ccc3c(nc([C@@H](O)c4cc(F)cc5cn[nH]c45)n3C3CCC[C@@H](C(=O)O)C3)c2CC[C@@H]1C` (stereo partly drawn) [Example 429] showed an IC50 of 0.1 to 1 µM.

`COC(=O)N1c2ccc3c(nc(Cn4ccccc4=O)n3[C@@H]3CCC[C@H](O)C3)c2CC[C@@H]1C` [Example 68] came in with a half-inhibitory concentration (IC50) of 0.1 to 1 µM.

Compound `COC(=O)N1c2ccc3c(nc(C(C)Cn4cc(Cl)cn4)n3C3CC4(CCNCC4)C3)c2CC[C@@H]1C` (stereo partly drawn) [Example 746] displayed an IC50 of 0.1 to 1 µM.

In turn, `COC(=O)N1c2ccc3c(nc(N(C)c4ccccc4OC)n3[C@@H]3CCC[C@@H](C(=O)O)C3)c2CC[C@@H]1C` [Example 689] yielded an IC50 of 0.1 to 1 µM.

For the compound `COC(=O)N1c2ccc3c(nc(C(O)c4cc(F)ccc4OC4CC4)n3C3CCCC(C(=O)O)C3)c2CC[C@@H]1C` (stereo partly drawn) [Example 482], the IC50 fell in the range of 0.1 to 1 µM.

Compound `COC(=O)N1c2ccc3c(nc(C4(n5ncc6ccccc65)CC4)n3[C@H]3CC[C@H](C(=O)O)CC3)c2CC[C@@H]1C` [Example 450] displayed a half-maximal inhibitory concentration (IC50) of 0.1 to 1 µM.

Regarding `COC(=O)N1c2ccc3c(nc(Cc4cncc(OC5CC5)n4)n3[C@@H]3CCC[C@@H](C(=O)O)C3)c2CC[C@@H]1C` [Example 716], the IC50 lay within 0.1 to 1 µM.

The compound `COC(=O)N1c2ccc3c(nc(C(O)c4cccc(OC)c4)n3C3CCCC(C(=O)O)C3)c2CC[C@@H]1C` (stereo partly drawn) [Example 472] showed an IC50 of 0.1 to 1 µM.

`COC(=O)N1c2ccc3c(nc(NCc4ccccc4)n3[C@@H]3CCC[C@@H](C(=O)O)C3)c2CC[C@@H]1C` [Example 690] yielded an IC50 of 0.1 to 1 µM.

For the compound `COC(=O)N1c2ccc3c(nc(C(O)c4cc(F)cc(OC)c4)n3C3CCCC(C(=O)O)C3)c2CC[C@@H]1C` (stereo partly drawn) [Example 417], the IC50 lay within 0.1 to 1 µM.

In turn, `COC(=O)N1c2ccc3c(nc(CC4CCCCO4)n3C3CCCC(C(=O)O)C3)c2CC[C@@H]1C` (stereo partly drawn) [Example 635] returned an IC50 of 0.1 to 1 µM.

On to `COC(=O)N1c2ccc3c(nc(C4(Oc5ccccc5)CC4)n3[C@@H]3CCC[C@@H](C(=O)O)C3)c2CC[C@@H]1C` [Example 409], for which the IC50 was 0.1 to 1 µM.

`COC(=O)N1c2ccc3c(nc(C(O)CC4CCCC4)n3C3CCCC(C(=O)O)C3)c2CC[C@@H]1C` (stereo partly drawn) [Example 454] yielded a concentration for half-maximal inhibition (IC50) of 0.1 to 1 µM.

For the compound `COC(=O)N1c2ccc3c(nc([C@H](C)Oc4ccccc4)n3[C@H]3CC[C@H](C(=O)O)CC3)c2CC[C@@H]1C` [Example 605], the IC50 was 0.1 to 1 µM.

`COC(=O)N1c2ccc3c(nc(Nc4ccccc4Cl)n3[C@H]3CC[C@H](C(=O)O)CC3)c2CC[C@@H]1C` [Example 839] registered a half-inhibitory concentration (IC50) of 0.1 to 1 µM.

In turn, `COC(=O)N1c2ccc3c(nc(Cc4ccccc4)n3[C@H]3CC[C@H](C(=O)O)C3)c2CC[C@@H]1C` (single isomer, unassigned) [Example 55] displayed an IC50 of 1 to 1000 µM.

In turn, `COC(=O)N1c2ccc3c(nc(C(O)c4c(OC)ccc(F)c4F)n3C3CCCC(C(=O)O)C3)c2CC[C@@H]1C` (stereo partly drawn) [Example 428] displayed an IC50 of 0.1 to 1 µM.

In turn, `COC(=O)N1c2ccc3c(nc(C(OC)c4ccccc4)n3C3CCCC(C(=O)O)C3)c2CC[C@@H]1C` (stereo partly drawn) [Example 473] returned an IC50 of 0.1 to 1 µM.

On to `COC(=O)N1c2ccc3c(nc(N(C)c4cccc(Cl)c4)n3[C@@H]3CCC[C@@H](C(=O)O)C3)c2CC[C@@H]1C` [Example 498], for which the half-maximal inhibitory concentration (IC50) lay within 0.1 to 1 µM.

Take `COC(=O)N1c2ccc3c(nc(C(c4ccccc4)C(C)C)n3C3CCC(C(=O)O)CC3)c2CC[C@@H]1C` (stereo partly drawn) [Example 640]: the concentration for half-maximal inhibition (IC50) was in the range of 0.1 to 1 µM.

`COC(=O)N1c2ccc3c(nc(N(C)c4ccc(Cl)cc4)n3[C@@H]3CCC[C@@H](C(=O)O)C3)c2CC[C@@H]1C` [Example 592] had an IC50 of 0.1 to 1 µM.

Compound `COC(=O)N1c2ccc3c(nc(Nc4cccc(OC)c4)n3[C@@H]3CCC[C@@H](C(=O)O)C3)c2CC[C@@H]1C` [Example 719] yielded an IC50 of 0.1 to 1 µM.

`COC(=O)N1c2ccc3c(nc(C(O)c4cc(F)cc(F)c4OC)n3C3CCCC(C(=O)O)C3)c2CC[C@@H]1C` (stereo partly drawn) [Example 537] registered a 50% inhibitory concentration (IC50) of 0.1 to 1 µM.

The compound `COC(=O)N1c2ccc3c(nc(C4(N(C)c5ccccn5)CC4)n3[C@@H]3CCC[C@@H](C(=O)O)C3)c2CC[C@@H]1C` [Example 652] registered a half-maximal inhibitory concentration (IC50) of 0.1 to 1 µM.

In turn, `COC(=O)N1c2ccc3c(nc(C(O)C4CCCCCC4)n3C3CCCC(C(=O)O)C3)c2CC[C@@H]1C` (stereo partly drawn) [Example 491] displayed an IC50 of 0.1 to 1 µM.

`COC(=O)N1c2ccc3c(nc(C(O)c4cc5ccccc5cn4)n3C3CCCC(C(=O)O)C3)c2CC[C@@H]1C` (stereo partly drawn) [Example 587] registered an IC50 of 0.1 to 1 µM.

`COC(=O)N1c2ccc3c(nc(Nc4cc(C5CC5)nn4C)n3[C@H]3CC[C@H](C(=O)O)CC3)c2CC[C@@H]1C` [Example 727] gave a half-inhibitory concentration (IC50) of 0.1 to 1 µM.

Consider `COC(=O)N1c2ccc3c(nc([C@@H](O)c4ccc5c(ccn5C)c4)n3[C@@H]3CCC[C@@H](C(=O)O)C3)c2CC[C@@H]1C` [Example 467], for which the 50% inhibitory concentration (IC50) was 0.1 to 1 µM.

The compound `COC(=O)N1c2ccc3c(nc(C(C)Cc4ccc(F)c(F)c4)n3C3CCC4(CC3)CNC4)c2CC[C@@H]1C` (stereo partly drawn) [Example 441] returned a half-inhibitory concentration (IC50) of 0.1 to 1 µM.

As to `COC(=O)N1c2ccc3c(nc(N(C)c4cccc(Cl)c4)n3[C@H]3CC[C@H](C(=O)O)CC3)c2CC[C@@H]1C` [Example 573], the concentration for half-maximal inhibition (IC50) is 0.1 to 1 µM.

As for `COC(=O)N1c2ccc3c(nc(C(Cc4ccccc4)NC(C)=O)n3C3CCCC(C(=O)O)C3)c2CC[C@@H]1C` (stereo partly drawn) [Example 469], the IC50 was in the range of 0.01 to 0.1 µM.
